These compounds were tested against Hsp27c (Hsp27 core domain, residues 79–176) (Homo sapiens, UniProt P04792). Settings: not given.

Protein sequences, listed by entry. Tags and fused reporters are not part of them. Residues count along the entry.
UniProt P04792, 79-176: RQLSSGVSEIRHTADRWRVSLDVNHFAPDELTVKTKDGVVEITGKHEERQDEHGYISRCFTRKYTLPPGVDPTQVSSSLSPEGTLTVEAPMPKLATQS

| Structure (SMILES) | binding to Hsp27c by HSQC NMR (in words) | HSQC Affinity |
| --- | --- | --- |
| O=C(O)c1csc(-c2cccc(Cl)c2Cl)n1 [Compound 2, 2-(2,3-dichlorophenyl)thiazole-4-carboxylic acid] | neither compound 1 nor 2 bound |  |
| O=[N+]([O-])c1ccc(Oc2ccc(Cl)cc2Cl)c([N+](=O)[O-])c1 [Compound 28, 2,4-dichloro-1-(2,4-dinitrophenoxy)benzene] |  | No Binding |
| O=[N+]([O-])c1ccc(Oc2cccc(F)c2)c([N+](=O)[O-])c1 [Compound 25, 1-(3-fluorophenoxy)-2,4-dinitrobenzene] |  | No Binding |
| O=[N+]([O-])c1ccc(Oc2c(F)c(F)cc(F)c2F)c([N+](=O)[O-])c1 [Compound 27, 3-(2,4-dinitrophenoxy)-1,2,4,5-tetrafluorobenzene] |  | No Binding |
| O=[N+]([O-])c1ccc(Oc2ccc(C(F)(F)F)cc2)c([N+](=O)[O-])c1 [Compound 29, 2,4-dinitro 1-(4-(trifluoromethyl)phenoxy)-benzene] |  | No Binding |
| O=C(Oc1ccc([N+](=O)[O-])cc1[N+](=O)[O-])c1ccc(F)cc1F [Compound 47, 2,4-dinitrophenyl 2,4-difluorobenzoate] | abolished binding | No Binding |
| Cc1ccc(Oc2ccc([N+](=O)[O-])cc2[N+](=O)[O-])c(C)c1 [Compound 30, 1-(2,4-dimethylphenoxy)-2,4-dinitrobenzene] |  | No Binding |
| O=[N+]([O-])c1ccc(Oc2ccc(F)c(F)c2F)c([N+](=O)[O-])c1 [Compound 26, 1-(2,4-dinitrophenoxy)-2,3,4-trifluorobenzene] |  | No Binding |
| O=[N+]([O-])c1cc([N+](=O)[O-])c(Oc2ccc(F)cc2F)cc1Oc1ccc(F)cc1F [Compound 48, 4,4’-((4,6-dinitro-1,3-phenylene)bis(oxy))bis(1,3-difluorobenzene)] |  | No Binding |
| O=[N+]([O-])c1ccc(Nc2ccc(F)cc2F)c([N+](=O)[O-])c1 [Compound 44, N-(2,4-difluorophenyl)-2,4-dinitroaniline] | removed activity | No Binding |
| O=C(O)CCS/C=C\c1ccccc1 [Compound 3b] | weakly bound |  |
| O=C(Oc1ccc(F)cc1F)c1ccc([N+](=O)[O-])cc1 [Compound 46, 2,4-difluorophenyl 4-nitrobenzoate] | abolished binding |  |
| O=C(O)c1ccc(Oc2ccc([N+](=O)[O-])cc2[N+](=O)[O-])cc1 [Compound 32, 4-(2,4-dinitrophenoxy)benzoic acid] |  | No Binding |
| O=C(O)CCS/C=C/c1ccccc1 [Compound 3a, (E)-3-(styrylthio)propanoic acid] | did not bind |  |
| Nc1cccc(-c2cccs2)c1 [Compound 1, 3-(thiophen-2-yl)aniline] | neither compound 1 nor 2 bound |  |
| O=[N+]([O-])c1ccc(Sc2ccc(F)cc2F)c([N+](=O)[O-])c1 [Compound 43, (2,4-difluorophenyl)(2,4-dinitrophenyl)sulfane] | removed activity | No Binding |
| O=Cc1ccc(Oc2ccc([N+](=O)[O-])cc2[N+](=O)[O-])cc1 [Compound 31, 4-(2,4-dinitrophenoxy)benzaldehyde] |  | No Binding |

Same assay, conditions: from HSQC affinity

| Structure (SMILES) | Ligand Efficiency |
| --- | --- |
| O=[N+]([O-])c1cccnc1Oc1ccc(F)cc1F [Compound 5, 2-(2,4-difluorophenoxy)-3-nitropyridine] | 0.29 kcal/mol/non-H atom |

Same assay, conditions: result in words; screened at 250 μM, significant CSP >8 Hz

| Structure (SMILES) | HSQC Affinity |
| --- | --- |
| O=[N+]([O-])c1cccnc1Oc1ccc(I)cc1 [Compound 24, 2-(4-iodophenoxy)-3-nitropyridine] | No Binding |
| O=[N+]([O-])c1cc(Oc2ccc(F)cc2F)ccc1Oc1ccc(F)cc1F [Compound 51] | No Binding |
| O=C(Oc1ccc(F)cc1F)c1ccc([N+](=O)[O-])cc1 [Compound 46, 2,4-difluorophenyl 4-nitrobenzoate] | No Binding |

Source: publication PMC7968374 (Bioorganic & medicinal chemistry, 2021)
